The list shows a part of the results, in another mix than the full data. Some salts or complexes appear as unconnected parts, following the source record. Active and inactive are the calls of the source.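 How the source made its calls: active means activation above its plate's cutoff, the mean activation of sample wells plus 3 SD; inactive means the rest.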
molecular target: Muscarinic acetylcholine receptor M4 (Homo sapiens) (UniProt P08173); assay: CHRM4 PAMs potentiating acetylcholine calcium signal – CHO-K1 cells, Fluo-8 calcium fluorescence, primary screen (AID 624126); conditions: CHO-K1 hM4/Gqi5, Fluo-8 calcium fluorescence, ACh EC20; at 3 µM; hits give high values; 0% = ACh EC20, 100% = maximal ACh

By UniProt entry, the sequences of proteins in these tests, tags left out.
UniProt P08173, whole entry: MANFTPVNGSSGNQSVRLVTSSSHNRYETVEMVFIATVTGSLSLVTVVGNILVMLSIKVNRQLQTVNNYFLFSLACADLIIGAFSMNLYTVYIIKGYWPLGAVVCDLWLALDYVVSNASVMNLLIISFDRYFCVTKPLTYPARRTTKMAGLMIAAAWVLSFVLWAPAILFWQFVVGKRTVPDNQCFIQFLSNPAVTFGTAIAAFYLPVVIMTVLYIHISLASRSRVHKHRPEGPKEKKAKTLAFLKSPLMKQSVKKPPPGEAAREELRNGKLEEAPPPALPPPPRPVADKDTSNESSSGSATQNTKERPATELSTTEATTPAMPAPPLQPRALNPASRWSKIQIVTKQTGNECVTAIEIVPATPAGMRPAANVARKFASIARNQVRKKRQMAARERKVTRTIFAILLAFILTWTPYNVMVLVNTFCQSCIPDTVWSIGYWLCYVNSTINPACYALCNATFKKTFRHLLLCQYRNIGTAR

SMILES | activation
CP(=O)(OCCOc1ccccc1)OCCOc1ccccc1 | inactive: 3.5%
CP(=O)(Nc1ccc(Cl)cc1Cl)Oc1ccccc1 (stereo not given) | inactive: -2.57%
CCCCCCCCCCCCCCCC1C[N+](C)(C)CCOP(C)(=O)O1 (stereo not given) | inactive: -10.7%
COc1ccccc1OP(C)(=O)Nc1ccc(Br)cc1 (stereo not given) | inactive: -3.81%
COc1ccc(OP(C)(=O)Nc2ccccn2)cc1 (stereo not given) | inactive: 4.73%
CN(C)CCOC(=O)C(O)(c1ccccc1)C1CCCC1 (stereo not given) | inactive: -18.8%
O=[N+]([O-])c1cc([N+](=O)[O-])c(Nc2ccccn2)c([N+](=O)[O-])c1 | inactive: -7.73%
Cc1c(NP(C)(=O)Oc2ccc(C(C)C)cc2)c(=O)n(-c2ccccc2)n1C (stereo not given) | inactive: 1.54%
COc1ccccc1OP(C)(=O)Nc1ccc(C)cc1C (stereo not given) | inactive: 0.46%
CP(=O)(Nc1ccccn1)Oc1ccccc1 (stereo not given) | inactive: 2.73%
CCc1ccc(OP(C)(=O)O)cc1 | inactive: 22.2%
COc1ccc(OP(C)(=O)Nc2ccc(Br)cc2)cc1 (stereo not given) | inactive: -4.3%
CCN(CC)CC(O)COC(=O)C(O)(c1ccccc1)C1CCCCC1 (stereo not given) | inactive: -19.3%
O=C(OCCCN1CCCC1)C(O)(c1ccccc1)C1CCCCC1 (stereo not given) | inactive: -55.4%
COc1ccccc1OP(C)(=O)Nc1c(C)n(C)n(-c2ccccc2)c1=O (stereo not given) | inactive: 1.95%
CCc1ccc(OP(C)(=O)Nc2cccnc2)cc1 (stereo not given) | inactive: 6.86%
CP(=O)(Oc1ccccc1)N1CCOC1=O (stereo not given) | inactive: 4.95%
CC(C)(C)c1ccc(OP(C)(=O)O)cc1 | inactive: 6.79%
COc1ccccc1OP(C)(=O)Nc1ccccc1Br (stereo not given) | inactive: 7.73%
CP(=O)(Nc1ccc(Cl)cc1)Oc1ccc(F)cc1 (stereo not given) | inactive: 4.21%
CN(C)C(=O)c1c([N+](=O)[O-])cc([N+](=O)[O-])cc1[N+](=O)[O-] | inactive: 11.6%
CCOC(=O)c1ccc(NP(C)(=O)Oc2ccc(Cl)cc2)cc1 (stereo not given) | inactive: 2.84%
CP(=O)(OC12CC3CC(CC(C3)C1)C2)OC12CC3CC(CC(C3)C1)C2 | inactive: 15%
COc1ccc(OP(C)(=O)Nc2cccc(Br)c2)cc1 (stereo not given) | inactive: -7.25%
CN(C)C1(CNC(=O)c2ccc(Cl)c(S(N)(=O)=O)c2)CCCCC1 | inactive: 2.03%

SMILES | activation
CN(C)CCOC(=O)C(O)(c1ccccc1)C1CCCCC1 (stereo not given) | inactive: -21%
COc1ccc(NP(C)(=O)Oc2ccccc2OC)cc1 (stereo not given) | inactive: 5.87%
O=[N+]([O-])c1ccc(OP2(=O)COCCO2)cc1 (stereo not given) | inactive: 9.73%
Cc1cc(-c2cccc3ccccc23)c(C)cn1.O=[N+]([O-])c1cc([N+](=O)[O-])c(O)c([N+](=O)[O-])c1 | inactive: 2.56%
O=[N+]([O-])c1cc([N+](=O)[O-])c(NCC2CCS(=O)(=O)C2)c([N+](=O)[O-])c1 (stereo not given) | inactive: 2.04%
Cc1c(C(c2ccc3c(c2)OCO3)c2c(C)n(C)n(-c3ccccc3)c2=O)c(=O)n(-c2ccccc2)n1C.O=[N+]([O-])c1cc([N+](=O)[O-])c(O)c([N+](=O)[O-])c1 | inactive: -1.85%
CP(=O)(Nc1ccc(SC(F)(F)F)cc1)Oc1ccc(F)cc1 (stereo not given) | inactive: -12.7%
CCOP(C)(=S)SCC(=O)NC(C)(CC)C(=O)O (stereo not given) | inactive: 5%
CP(=O)(Nc1ccc2c(c1)OCCO2)Oc1ccccc1 (stereo not given) | inactive: 3.11%
Cc1ccccc1NP(C)(=O)Nc1ccccc1C | inactive: -0.8%
O=[N+]([O-])c1cc([N+](=O)[O-])c(C(F)(F)F)c([N+](=O)[O-])c1O | inactive: 0.85%
O=[N+]([O-])c1cc([N+](=O)[O-])c(Nc2ccc(Cl)cc2)c([N+](=O)[O-])c1 | inactive: -5.92%
CP(=O)(Nc1ccccc1F)Oc1ccccc1 (stereo not given) | inactive: 6.99%
CC(C)c1ccc(OP(C)(=O)Nc2ccc(SC(F)(F)F)cc2)cc1 (stereo not given) | inactive: 0.46%
O=C(OC1CN2CCC1CC2)c1ccc([N+](=O)[O-])cc1 (stereo not given) | inactive: 14.8%
O=C(OCCN1CCN(CCOCc2ccccc2)CC1)C(O)(c1ccccc1)c1ccccc1 | inactive: -43.9%
COc1ccc2c(c1O)-c1c(O)c(OC)cc3c1[C@H](C2)[N+](C)(C)CC3.O=[N+]([O-])c1cc([N+](=O)[O-])c([O-])c([N+](=O)[O-])c1[O-] | inactive: 5.08%
CCN(CC)CCCNc1ccccc1[N+](=O)[O-].O=[N+]([O-])c1cc([N+](=O)[O-])c(O)c([N+](=O)[O-])c1 | inactive: -7.96%
CCOC(=O)c1ccc(NP(C)(=O)Oc2ccc(F)cc2)cc1 (stereo not given) | inactive: -4.31%
COc1ccc(OP(C)(=O)Nc2ccc(SC(F)(F)F)cc2)cc1 (stereo not given) | inactive: -6.23%
Cc1c([N+](=O)[O-])cc([N+](=O)[O-])c(Br)c1[N+](=O)[O-] | inactive: 6.53%
CCN(CC)CCCOC(=O)C(O)(c1ccccc1)C1CCCCC1 (stereo not given) | inactive: -18.5%
CP(=O)(Nc1ccccc1)Oc1ccc(F)cc1 (stereo not given) | inactive: 1.57%
O=[N+]([O-])c1cc([N+](=O)[O-])c(OC2CCCCC2O)c([N+](=O)[O-])c1 (stereo not given) | inactive: 1.56%
CCCCCOc1ccc(NP(C)(=O)Oc2ccc(Cl)cc2Cl)cc1 (stereo not given) | inactive: -1.78%

Reference: PubChem BioAssay AID624126 (The Scripps Research Institute Molecular Screening Center, 2012)
